Reference: patent publication US20250223276A1, “Substituted Pyrrolidinyl And Piperidinyl Compounds And Related Methods Of Treatment” (Alkermes, Inc., priority 2022, published 2025)
pEC50: −log10 of the molar value.

Sequences of proteins named here, by UniProt entry; tags and fusion partners are left off.
UniProt O43614, whole entry: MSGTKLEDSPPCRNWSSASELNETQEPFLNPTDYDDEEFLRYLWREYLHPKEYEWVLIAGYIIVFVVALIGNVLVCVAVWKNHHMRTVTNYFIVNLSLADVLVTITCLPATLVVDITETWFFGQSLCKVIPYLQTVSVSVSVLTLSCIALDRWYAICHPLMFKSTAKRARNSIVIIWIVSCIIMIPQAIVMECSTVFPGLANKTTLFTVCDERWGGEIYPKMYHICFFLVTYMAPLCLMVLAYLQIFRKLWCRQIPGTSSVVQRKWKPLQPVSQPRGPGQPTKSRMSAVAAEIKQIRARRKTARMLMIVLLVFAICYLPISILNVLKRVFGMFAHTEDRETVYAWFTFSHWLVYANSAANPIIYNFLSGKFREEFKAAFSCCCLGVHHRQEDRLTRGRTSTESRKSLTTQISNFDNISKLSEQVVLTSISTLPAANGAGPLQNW

Molecular target: human orexin-2 receptor (OX2R) (Homo sapiens, UniProt O43614)
Test: Human OX2R IP1 assay
Conditions: T-Rex CHO cells stably overexpressing human OX2R; IP1 (inositol monophosphate) accumulation, HTRF; 1 hr at 37 degrees C
Procedure: T-Rex CHO cells stably overexpressing the human orexin-2 receptor (OX2R) are induced overnight with 1 μg/mL of doxycycline in a T225 flask. 24 hours post induction, cells are lifted with accutase and plated into a 384-well proxy plate at 30,000 cells/well. Cells are then treated with different test compounds in 1× stimulation buffer containing 10 mM Hepes, 1 mM CaCl2), 0.5 mM MgCl2, 4.2 mM KCl, 146 mM NaCl, 5.5 mM glucose, and 50 mM LiCl, pH 7.4, for 1 hr at 37 degrees C. Following incubation, the reaction is terminated by the addition of detection mix, which is composed of IP1-d2 and anti-IP1-cryptate diluted in lysis buffer as well as 1× stimulation buffer. The plates are allowed to incubate for 1 hour at room temperature and are then read in the En Vision® multimode plate reader, measuring inositol phosphate levels.
Cisbio IP1 is a cell-based functional assay quantifying the accumulation of inositol monophosphate (IP), a metabolite released as a result of orexin 2 receptor activation through the phospholipase C-Gq signaling pathway. This is a competitive immunoassay in which the IP1 produced by the cells upon receptor activation competes with the IP1 analog coupled to the d2 fluorophore (acceptor) for binding to an anti-IP1 monoclonal antibody labeled with Eu cryptate (donor). The measured HTRF-FRET based signal is inversely proportional to the IP1 concentration produced. […]

In the case of `O=C(N[C@H]1CCN(c2cccnn2)C[C@H]1CO[C@H]1CC[C@@H](c2cccc(F)c2)CC1)C(F)(F)F`, the pEC50 was over 7.00.
